Laboratory results taken from patent US4908365A, “Benzhydryloxyethylpiperazine derivatives, processes for their preparation and pharmaceutical compositions in which they are present” (priority 1986, dated 1990).

Assays:
[1] = system: histamine; assay: Bronchospasm by inhalation of a histamine solution; format: in vivo, guinea-pigs; conditions: Cavia porcellus, po, 0.5 h, read-out: Bronchospasm ED50
Method: F-Bronchospasm by inhalation of a histamine solution
Guinea-pigs are placed in a closed chamber into which histamine is introduced as an aerosol, and only those which show very distinct signs of asphyxia within four minutes are selected.
The substance to be studied is administered to groups of guinea-pigs thirty minutes before a further period in the chamber in order to check the resistance to histamine. A guinea-pig is considered to be protected if it resists the histamine aerosol for ten minutes without showing signs of asphyxia.
A 50% effective dose is calculated from the results obtained.

[2] = system: histamine; assay: animal or person; format: in vivo, guinea-pigs; conditions: Cavia porcellus, po, 0.5 h, read-out: Histaminic shock ED50

`CC(C)(C)c1ccc(C(O)CCCN2CCC(C(O)(c3ccccc3)c3ccccc3)CC2)cc1` (centres unmarked) [Terfenadine, reference compound] gave an ED50 [1] of 1.6 mg/kg and an ED50 [2] of 2.58 mg/kg.
